Here are results for 77 compounds from PubChem BioAssay AID623877 (Johns Hopkins Ion Channel Center, 2012).

Sequences of proteins named here, by UniProt entry; tags and fusion partners are left off.
UniProt Q8BHY3, whole entry: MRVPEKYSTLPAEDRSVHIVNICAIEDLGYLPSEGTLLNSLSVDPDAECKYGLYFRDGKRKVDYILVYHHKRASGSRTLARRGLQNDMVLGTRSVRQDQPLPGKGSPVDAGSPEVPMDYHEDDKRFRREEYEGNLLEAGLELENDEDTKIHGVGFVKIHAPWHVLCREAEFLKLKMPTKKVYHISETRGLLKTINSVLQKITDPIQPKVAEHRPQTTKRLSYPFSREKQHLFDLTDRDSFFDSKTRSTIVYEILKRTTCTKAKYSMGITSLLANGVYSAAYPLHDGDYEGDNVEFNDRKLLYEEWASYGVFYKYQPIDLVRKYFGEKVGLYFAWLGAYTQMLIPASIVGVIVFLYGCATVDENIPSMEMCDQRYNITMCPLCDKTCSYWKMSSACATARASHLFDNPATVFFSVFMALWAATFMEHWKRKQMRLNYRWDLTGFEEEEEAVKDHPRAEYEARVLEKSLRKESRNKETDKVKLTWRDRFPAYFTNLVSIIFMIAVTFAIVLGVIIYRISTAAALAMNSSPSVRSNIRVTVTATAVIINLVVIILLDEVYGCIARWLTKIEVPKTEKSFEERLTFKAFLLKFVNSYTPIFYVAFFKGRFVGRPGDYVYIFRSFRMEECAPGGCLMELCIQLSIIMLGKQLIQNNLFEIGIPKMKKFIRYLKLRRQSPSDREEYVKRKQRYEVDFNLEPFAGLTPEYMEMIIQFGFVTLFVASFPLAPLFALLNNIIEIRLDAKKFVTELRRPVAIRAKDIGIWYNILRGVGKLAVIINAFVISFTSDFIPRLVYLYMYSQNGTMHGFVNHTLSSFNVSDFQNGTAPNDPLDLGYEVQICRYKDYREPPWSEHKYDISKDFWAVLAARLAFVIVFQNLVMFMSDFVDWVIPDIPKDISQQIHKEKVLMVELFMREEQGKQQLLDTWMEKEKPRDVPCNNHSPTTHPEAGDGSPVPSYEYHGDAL

The entries are a selection whose mix differs from that of the whole data set. Active and inactive are the calls of the source.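 How the source made its calls: active means fluorescence-ratio B-score plate-corrected deviation score at least 3 library SD below zero, with starting fluorescence score within 5 deviations; inactive means the rest.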

The target in the assay is Anoctamin-1 (Mus musculus) (UniProt Q8BHY3). Briefly: TMEM16A chloride channel activators or potentiators, primary screen, cell-based, HTS (AID 623877). To be noted: HEK293 TMEM16A/YFP-H148Q/I152L, iodide quench fluorescence, at 10 µM.
On to `O=C(O)c1ccccc1[As](=O)(O)O`, for which the result was inactive.

Regarding `CC(=O)Nc1ccc([As](=O)(O)O)cc1`, the outcome was inactive. The same measure for `CCCC1OP(N)(=O)OCC1CC` (configuration not stated): “inactive”; for `O=C1C(O)=C([N+](=O)[O-])C(=O)C(O)=C1[N+](=O)[O-]`: “inactive”. The same measure for `Cc1cc(C)cc(OP(C)(=O)Nc2cccc(C(F)(F)F)c2)c1` (configuration not stated): “inactive”; for `O=P(Nc1nc2ccc(Cl)cc2s1)(c1ccccc1)c1ccccc1`: “inactive”. The same measure for `CCN(N=Nc1nonc1N)c1nonc1N`: “inactive”. As for `Nc1cccc2ccc([As](=O)(O)O)cc12`, the result was inactive.

For the compound `CP(=O)(OCCOc1ccccc1)OCCOc1ccccc1`, the outcome was inactive.

Consider `CP(=O)(Nc1ccc(Cl)cc1Cl)Oc1ccccc1` (configuration not stated), for which the outcome was inactive. The same measure for `CCCCCCCCCCCCCCCC1C[N+](C)(C)CCOP(C)(=O)O1` (configuration not stated): “inactive”. The same measure for `COc1ccc(OP(C)(=O)Nc2ccccn2)cc1` (configuration not stated): “inactive”; for `COc1ccccc1OP(=O)(Nc1ccc(C)cn1)Oc1ccccc1OC`: “inactive”; for `Cc1ccc(OP(=O)(Nc2nccs2)Oc2ccc(C)cc2)cc1`: “inactive”. The same measure for `Clc1ccc(Cl)c(NC2=NCC(CBr)S2)c1` (configuration not stated): “inactive”; for `CN(C)CCOC(=O)C(O)(c1ccccc1)C1CCCC1` (configuration not stated): “inactive”. Take `CN1CCCC(OC(=O)C(c2ccccc2)c2ccccc2)C1` (configuration not stated): the result was inactive. The same measure for `NC(=O)c1cc([N+](=O)[O-])cc([N+](=O)[O-])c1N`: “inactive”. As to `COc1ccccc1OP(C)(=O)Nc1ccc(Br)cc1` (configuration not stated), the result was inactive. The same measure for `CN(C(=O)Cc1ccc(Cl)c(Cl)c1)[C@H]1CCCC[C@H]1N1CCCC1`: “inactive”; for `Cc1ccc(N/C(=N/P(=O)(N2CCOCC2)N2CCOCC2)N2CCOCC2)cc1`: “inactive”.

For `CP(=O)(Nc1ccccn1)Oc1ccccc1` (configuration not stated), the outcome was inactive. The same measure for `COc1ccccc1OP(C)(=O)Nc1ccc(C)cc1C` (configuration not stated): “inactive”; for `CCc1ccc(OP(C)(=O)O)cc1`: “inactive”. For `CC(C)CC(=O)NC(Sc1ccc(Cl)cc1)C(Cl)(Cl)Cl` (configuration not stated), the result was inactive. With `O=[N+]([O-])c1cc([N+](=O)[O-])c(Nc2ccccn2)c([N+](=O)[O-])c1`, the result was inactive. The same measure for `Cc1c(NP(C)(=O)Oc2ccc(C(C)C)cc2)c(=O)n(-c2ccccc2)n1C` (configuration not stated): “inactive”; for `Nc1cc(N)c2nonc2c1[N+](=O)[O-]`: “inactive”.

With `Oc1ccccc1CNc1ccccn1`, the outcome was inactive.

As for `O=C(NC(Sc1ccncn1)C(Cl)(Cl)Cl)c1ccccc1` (configuration not stated), the outcome was inactive. For `COc1ccccc1OP(C)(=O)Nc1c(C)n(C)n(-c2ccccc2)c1=O` (configuration not stated), the outcome was inactive.

As for `O=[N+]([O-])c1cccc2n[nH]nc12`, the result was inactive. The same measure for `CC(=O)N1C2C3N(C(C)=O)C1C1N(C(C)=O)C(C(N1C(C)=O)N3C(C)=O)N2C(C)=O`: “inactive”; for `O=C(OCCCN1CCCC1)C(O)(c1ccccc1)C1CCCCC1` (configuration not stated): “inactive”. Regarding `Cc1ccc(NP(=O)(Oc2ccccc2)Oc2ccccc2)nc1`, the outcome was inactive.

Turning to `CP(=O)(Oc1ccccc1)N1CCOC1=O` (configuration not stated), the result was inactive. The same measure for `CCc1nc2c(n1)c1c(non1O)c1c2no[n+]1[O-]`: “inactive”. The same measure for `O=[N+]([O-])c1cc([N+](=O)[O-])c(CCNc2ccccc2)c([N+](=O)[O-])c1`: “inactive”; for `CCc1ccc(OP(C)(=O)Nc2cccnc2)cc1` (configuration not stated): “inactive”. On to `CCN(CC)CC(O)COC(=O)C(O)(c1ccccc1)C1CCCCC1` (configuration not stated), for which the result was inactive. The same measure for `COc1ccc(C2=NCC(CBr)S2)cc1` (configuration not stated): “inactive”. Turning to `COc1ccc(OP(C)(=O)Nc2ccc(Br)cc2)cc1` (configuration not stated), the result was inactive. The same measure for `CN(C)C(=O)c1c([N+](=O)[O-])cc([N+](=O)[O-])cc1[N+](=O)[O-]`: “inactive”; for `CC(C)=N/N=C(\N)N[N+](=O)[O-]`: “inactive”; for `CN(C)C(=O)OCCc1n(C)cc[n+]1C`: “inactive”. The same measure for `CC1CCN(C(=O)Oc2c(Cl)cc(Cl)c3cccnc23)CC1`: “inactive”; for `CC(C)(C)c1ccc(OP(C)(=O)O)cc1`: “inactive”. For `Nc1ccc([As](=O)(O)c2ccc(N)cc2)cc1`, the result was inactive.

Turning to `COc1ccccc1OP(C)(=O)Nc1ccccc1Br` (configuration not stated), the outcome was inactive. The same measure for `C[N+]1=C2C=CC=CC=C2SC12C([N+](=O)[O-])=CC([N+](=O)[O-])=C[C-]2[N+](=O)[O-]` (configuration not stated): “inactive”; for `CCN(/C(=N/P(=O)(N1CCOCC1)N1CCOCC1)N1CCOCC1)c1ccc(OC)cc1`: “inactive”.

`CP(=O)(Nc1ccc(Cl)cc1)Oc1ccc(F)cc1` (configuration not stated): the result was inactive.

As for `CCOC(=O)c1ccc(NP(C)(=O)Oc2ccc(Cl)cc2)cc1` (configuration not stated), the outcome was inactive. With `O=C(Nc1cc([As](=O)(O)O)ccc1O)c1ccccc1`, the outcome was inactive.

As for `CP(=O)(OC12CC3CC(CC(C3)C1)C2)OC12CC3CC(CC(C3)C1)C2`, the result was inactive. The same measure for `Nc1ccc2c(ccc3cccnc32)n1.O=[N+]([O-])c1cc([N+](=O)[O-])c(O)c([N+](=O)[O-])c1`: “inactive”; for `O=P1(N(CCCl)CCCl)OCCCS1` (configuration not stated): “inactive”; for `O=[N+]([O-])c1cccc(NC2=NCC(CBr)S2)c1` (configuration not stated): “inactive”.

For `COC(=O)C1(C)COP(=O)(Nc2ccccc2)OC1` (configuration not stated), the result was inactive. As to `O=C(O)CNc1ccc([As](=O)(O)O)cc1`, the result was inactive. For the compound `CC(C)(C)C(=O)NC(Sc1ccncn1)C(Cl)(Cl)Cl` (configuration not stated), the result was inactive.

As to `O=[N+]([O-])c1ncn(CCn2ncnc2[N+](=O)[O-])n1`, the result was inactive.

In the case of `CCCCOc1ccc(C(=O)NCC2(N3CCCCC3)CCCCC2)cc1OC`, the result was inactive.

On to `Cc1cc(SC(NC(=O)c2ccccc2)C(Cl)(Cl)Cl)nc(C(C)C)n1` (configuration not stated), for which the outcome was inactive. As to `CC1CCNP(=O)(N(CCCl)CCCl)O1` (configuration not stated), the result was inactive. The same measure for `CCOC(=O)Nc1ccc([As](=O)(O)O)c(O)c1`: “inactive”; for `CP(=O)(Nc1ccccc1Br)Oc1ccccc1` (configuration not stated): “inactive”.

With `O=[N+]([O-])c1ccc(Nc2ccc(Oc3ccc([N+](=O)[O-])cc3[N+](=O)[O-])cc2)c([N+](=O)[O-])c1`, the outcome was inactive. The same measure for `O=P(Nc1ccccn1)(c1cccc2ccccc12)c1cccc2ccccc12`: “inactive”; for `Cc1cc(SC(NC=O)C(Cl)(Cl)Cl)ncn1` (configuration not stated): “inactive”; for `COc1ccccc1OP(C)(=O)Nc1ccccc1` (configuration not stated): “inactive”. The same measure for `CCOC(=O)Nc1cccc([As](=O)(O)O)c1`: “inactive”; for `CP(=S)(Nn1cnnc1)Oc1ccccc1` (configuration not stated): “inactive”. The same measure for `CCc1ccc(OP(C)(=O)N2CCN(c3ccc([N+](=O)[O-])cc3)CC2)cc1` (configuration not stated): “inactive”; for `O=C(COc1ccccc1)OC1CN2CCC1CC2` (configuration not stated): “inactive”. `CP(=O)(NC(=O)Nc1ccccc1)Oc1ccccc1` (configuration not stated): the result was inactive. The same measure for `Cc1cc(C)cc(OP(C)(=O)Nc2ccc(SC(F)(F)F)cc2)c1` (configuration not stated): “inactive”.
